{"sequences": {"note": "By UniProt entry, the sequences of proteins in these tests, tags left out.", "UniProt P61169, whole entry": "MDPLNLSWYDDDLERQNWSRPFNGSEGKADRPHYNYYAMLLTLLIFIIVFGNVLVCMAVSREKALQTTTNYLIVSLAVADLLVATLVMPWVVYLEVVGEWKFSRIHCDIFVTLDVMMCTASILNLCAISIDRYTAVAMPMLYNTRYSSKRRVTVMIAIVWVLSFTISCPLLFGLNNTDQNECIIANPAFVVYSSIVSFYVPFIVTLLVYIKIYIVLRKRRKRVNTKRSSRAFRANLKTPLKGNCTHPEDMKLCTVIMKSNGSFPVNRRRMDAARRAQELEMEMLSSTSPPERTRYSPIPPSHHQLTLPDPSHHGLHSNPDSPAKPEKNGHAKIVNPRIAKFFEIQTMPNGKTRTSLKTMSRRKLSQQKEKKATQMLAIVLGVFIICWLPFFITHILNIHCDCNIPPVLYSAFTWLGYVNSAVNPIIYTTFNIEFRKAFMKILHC"}, "source": "BindingDB's records for PubMed 11171942", "about": "(University of Reading, 2001)", "target": "D(2) dopamine receptor (Rattus norvegicus, UniProt P61169)"}
{"compound": "O=C1NCCN1CCN1CCC(c2cn(-c3ccc(F)cc3)c3ccc(Cl)cc23)CC1", "note": "[1-[2-[4-[5-chloro-1-(4-fluorophenyl)-indol-3-yl]-1-piperidyl]ethyl]imidazolidin-2-one]", "values": [{"measurement": "Ki", "value": 0.38, "unit": "nM"}]}
